Earlier results on one sequence are cited in paper PMC10035387 (Cancer Research Communications, 2022).

For the series the following is noted: cited from earlier work.

For FOLFIRINOX, the “Incidence of grade 3/4 neutropenia” value is given as 45.7%.
